The source of these data is ChEMBL document CHEMBL1152596, “Inhibition of serotonin and norepinephrine reuptake and inhibition of phosphodiesterase by multi-target inhibitors as potential agents for depression” (Bioorg Med Chem, 2009).

Protein sequences, listed by entry. Tags and fused reporters are not part of them. Lines headed by an entry give the natural chain unless they say otherwise; changes in a name come on top.
UniProt Q08499: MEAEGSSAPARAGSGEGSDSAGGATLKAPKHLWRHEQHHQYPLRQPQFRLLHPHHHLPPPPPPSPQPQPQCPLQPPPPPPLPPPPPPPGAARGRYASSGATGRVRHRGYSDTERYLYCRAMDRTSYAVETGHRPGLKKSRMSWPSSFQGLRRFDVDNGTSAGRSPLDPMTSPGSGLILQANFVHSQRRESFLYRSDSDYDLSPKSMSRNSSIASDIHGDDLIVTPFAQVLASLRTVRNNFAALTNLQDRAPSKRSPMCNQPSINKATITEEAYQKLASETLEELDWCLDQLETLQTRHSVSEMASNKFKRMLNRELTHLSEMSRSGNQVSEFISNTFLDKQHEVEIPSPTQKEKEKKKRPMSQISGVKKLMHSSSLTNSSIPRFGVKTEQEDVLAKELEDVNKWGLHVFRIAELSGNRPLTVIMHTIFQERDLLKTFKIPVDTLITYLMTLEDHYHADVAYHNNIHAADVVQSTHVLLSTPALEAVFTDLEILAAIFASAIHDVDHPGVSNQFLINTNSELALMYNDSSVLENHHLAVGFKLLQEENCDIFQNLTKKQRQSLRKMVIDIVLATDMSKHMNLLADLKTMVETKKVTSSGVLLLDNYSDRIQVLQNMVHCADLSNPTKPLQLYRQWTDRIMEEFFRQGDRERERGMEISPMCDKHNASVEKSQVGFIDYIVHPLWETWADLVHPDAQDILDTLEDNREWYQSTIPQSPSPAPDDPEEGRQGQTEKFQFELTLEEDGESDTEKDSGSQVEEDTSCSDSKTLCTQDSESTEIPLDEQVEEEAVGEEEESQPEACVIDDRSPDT

The assay has as its target 3',5'-cyclic-AMP phosphodiesterase 4D (Homo sapiens, UniProt Q08499).

Consider `COc1ccc(C2=NN(CCCCCBr)C(=O)[C@@H]3CC=CC[C@H]23)cc1OC` (relative stereo), for which half-maximal inhibition (IC50) was put at 2 nM.

For orientation: IC50 means the concentration at which inhibition is half-maximal. A low value points to higher potency.
